Laboratory results from PubChem BioAssay AID651711 (Broad Institute, 2012).
This is a selection; strong and weak results do not stand in their true shares. Active and inactive are the calls of the source.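 The calls were made as follows: active = mean replicate inhibition above about 25%, with every replicate also reaching it (limit read from the data, passing the limit was not always enough); inconclusive = only one of those two criteria met; inactive = neither criterion met.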

The chains behind the UniProt entries cited, without tags or fusion partners. Where a name states a change or a piece, a line headed by the entry shows the natural chain unless it says otherwise.
UniProt Q15084: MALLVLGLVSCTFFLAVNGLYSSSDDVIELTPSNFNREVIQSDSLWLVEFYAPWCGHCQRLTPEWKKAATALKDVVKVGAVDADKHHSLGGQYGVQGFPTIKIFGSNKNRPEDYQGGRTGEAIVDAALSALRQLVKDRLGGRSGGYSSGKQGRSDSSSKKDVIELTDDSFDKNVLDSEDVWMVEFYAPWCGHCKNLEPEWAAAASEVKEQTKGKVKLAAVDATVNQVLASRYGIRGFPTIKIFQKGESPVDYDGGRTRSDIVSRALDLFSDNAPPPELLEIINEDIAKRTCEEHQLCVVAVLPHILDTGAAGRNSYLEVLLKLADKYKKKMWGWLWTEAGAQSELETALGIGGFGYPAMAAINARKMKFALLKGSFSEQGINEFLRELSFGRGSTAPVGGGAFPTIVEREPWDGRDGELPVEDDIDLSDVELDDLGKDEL

Biological target: Protein disulfide-isomerase A6 (Homo sapiens) (UniProt Q15084)
Experiment: ERp5 (PDIA6) reductase activity blockers – biochemical, turbidity, absorbance 650 nm, single point, primary screen (AID 651711)
Conditions: ERp5 insulin aggregation, 90 min, at 9.99 µM, hits give high values

Row | Structure (SMILES) | inhibition
1 | O=[N+]([O-])c1ccc(Nc2ccc(Oc3ccc([N+](=O)[O-])cc3[N+](=O)[O-])cc2)c([N+](=O)[O-])c1 | inactive: 0.113%
2 | O=P(Nc1ccccn1)(c1cccc2ccccc12)c1cccc2ccccc12 | inactive: -3.9%
3 | Cc1cc(SC(NC=O)C(Cl)(Cl)Cl)ncn1 (centres undefined) | inactive: 5.94%
4 | CCOC(=O)Nc1cccc([As](=O)(O)O)c1 | inactive: -2.86%
5 | O=C(Nc1ccncc1[N+](=O)[O-])c1ccc([N+](=O)[O-])cc1[N+](=O)[O-] | inactive: -1.52%
6 | O=C(O)C(=O)c1ccc(N(CCCl)CCCl)cc1 | inactive: -0.464%
7 | COP1(=S)c2c(C)nn(CCC#N)c2N=C(c2ccc(F)cc2)N1C (centres undefined) | inactive: 2.95%
8 | COC(=O)C1(C)COP(=O)(N2CCCC2)OC1 (centres undefined) | inactive: -3.02%
9 | CCOC(=O)c1ccc(NC(=O)C(C)(CCl)SC)cc1 (centres undefined) | inactive: 2.77%
10 | O=C(OC1CN2CCC1CC2)c1cccc([N+](=O)[O-])c1 (centres undefined) | inactive: 3.07%
11 | Cc1ccc(NP(=O)(Oc2ccccc2)Oc2ccccc2)nc1 | inactive: 1.02%
12 | O=[N+]([O-])c1cc([N+](=O)[O-])c(CCNc2ccccc2)c([N+](=O)[O-])c1 | inactive: 1.19%
13 | COc1ccc(C2=NCC(CBr)S2)cc1 (centres undefined) | inactive: -3.51%
14 | CC(C)c1nc(Nc2ccccc2)n(P(=O)(N(C)C)N(C)C)n1 | inactive: -13.7%
15 | CC(C)=N/N=C(\N)N[N+](=O)[O-] | inactive: 1.48%
16 | c1cc(-c2nn[nH]n2)ccc1-c1nn[nH]n1 | inactive: -6.03%
17 | Nc1ccc([As](=O)(O)c2ccc(N)cc2)cc1 | inactive: 0.798%
18 | C[N+]1=C2C=CC=CC=C2SC12C([N+](=O)[O-])=CC([N+](=O)[O-])=C[C-]2[N+](=O)[O-] (centres undefined) | inactive: -16.6%
19 | CCN(/C(=N/P(=O)(N1CCOCC1)N1CCOCC1)N1CCOCC1)c1ccc(OC)cc1 | inactive: -1.34%
20 | O=C(Nc1cc([As](=O)(O)O)ccc1O)c1ccccc1 | inactive: -1.14%
21 | O=P1(N(CCCl)CCCl)OCCCS1 (centres undefined) | inactive: 2.02%
22 | COC(=O)C1(C)COP(=O)(Nc2ccccc2)OC1 (centres undefined) | inactive: -3.12%
23 | O=[N+]([O-])c1cccc(NC2=NCC(CBr)S2)c1 (centres undefined) | inactive: -0.711%
24 | O=C(O)CNc1ccc([As](=O)(O)O)cc1 | inactive: -0.552%
25 | CC(C)(C)C(=O)NC(Sc1ccncn1)C(Cl)(Cl)Cl (centres undefined) | inactive: -5.32%
26 | O=[N+]([O-])c1ncn(CCn2ncnc2[N+](=O)[O-])n1 | inactive: 0.697%
27 | Cc1ccc(NP(=O)(Oc2ccccc2F)Oc2ccccc2F)nc1 | inactive: 3.06%

Row | Structure (SMILES) | inhibition
28 | CN(C(=O)Cc1ccc(Cl)c(Cl)c1)[C@H]1CCCC[C@@H]1N1CCCC1 | inactive: -0.384%
29 | CCn1c(=O)n(C2CCN(CC3CCCCCCC3)C[C@H]2CO)c2ccccc21 (some centres undefined) | inactive: 2.77%
30 | CC(=O)Nc1ccc([As](=O)(O)O)cc1 | inactive: 4.86%
31 | O=C(O)c1ccccc1[As](=O)(O)O | inactive: 6.17%
32 | CCCC1OP(N)(=O)OCC1CC (centres undefined) | inactive: -4.34%
33 | O=P(Nc1nc2ccc(Cl)cc2s1)(c1ccccc1)c1ccccc1 | inactive: -1.31%
34 | CN(C)P(=O)(N(C)C)n1c(Nc2ccccc2)nnc1-c1ccccc1 | inactive: 0.261%
35 | CN(C(=O)Cc1ccccc1)C1CC[C@@]2(CCCO2)C[C@@H]1N1CCCC1 (some centres undefined) | inactive: 11.9%
36 | Nc1cccc2ccc([As](=O)(O)O)cc12 | inactive: 4.74%
37 | COc1ccccc1OP(=O)(Nc1ccc(C)cn1)Oc1ccccc1OC | inactive: 5.64%
38 | Cc1ccc(OP(=O)(Nc2nccs2)Oc2ccc(C)cc2)cc1 | inactive: -2.07%
39 | Clc1ccc(Cl)c(NC2=NCC(CBr)S2)c1 (centres undefined) | inactive: 3.51%
40 | NC(=O)c1cc([N+](=O)[O-])cc([N+](=O)[O-])c1N | inactive: -5.84%
41 | CN(C(=O)Cc1ccc(Cl)c(Cl)c1)[C@H]1CCCC[C@H]1N1CCCC1 | inactive: -4.03%
42 | Cc1ccc(N/C(=N/P(=O)(N2CCOCC2)N2CCOCC2)N2CCOCC2)cc1 | inactive: 0.942%
43 | Nc1cc(N)c2nonc2c1[N+](=O)[O-] | inactive: -5.41%
44 | CC(C)CC(=O)NC(Sc1ccc(Cl)cc1)C(Cl)(Cl)Cl (centres undefined) | inactive: 3.74%
45 | O=C(NC(Sc1ccncn1)C(Cl)(Cl)Cl)c1ccccc1 (centres undefined) | inactive: -0.0995%
46 | CCc1cc(O)c([N+](=O)[O-])c(C)c1[N+](=O)[O-] | inactive: 1.91%
47 | CC(C)(C)C(=O)NC(Sc1ccccc1)C(Cl)(Cl)Cl (centres undefined) | inactive: 2.52%
48 | CCOc1ccc(C2=NCC(CBr)S2)cc1 (centres undefined) | inactive: 2.97%
49 | CC(=O)Nc1ccc([As](=O)(O)O)c(O)c1 | inactive: 5.68%
50 | CC(=O)Nc1ccc(Oc2c([N+](=O)[O-])cc([N+](=O)[O-])cc2[N+](=O)[O-])cc1 | inactive: -0.145%
51 | CC(=O)c1ccc(N2CC2c2ccncc2)cc1 (centres undefined) | inactive: 6.64%
52 | N#C/C(=C\c1ccc(N(CCBr)CCBr)cc1)C(N)=O | inactive: -1.29%
53 | COC(=O)C1(C)COP(=O)(NCc2ccccc2)OC1 (centres undefined) | inactive: 2.35%
54 | Cc1ccccc1CN(C)C(=O)COC(=O)C(O)(c1ccccc1)c1ccccc1 | inactive: 5.17%

Row | Structure (SMILES) | inhibition
55 | C[C@H]1OP(=O)(Oc2ccccc2)C[C@@H]2O[C@@H]21 (some centres undefined) | inactive: 4.48%
56 | C[C@@H]1C=CCP(=O)(Oc2ccccc2)O1 (some centres undefined) | inactive: -1.06%
57 | O=P1(N(CCCl)CCCl)OCCC2CCCCN21 (centres undefined) | inactive: -1.53%
58 | CCNC(=S)/N=C(\N)N[N+](=O)[O-] | inactive: -2.84%
59 | O=C(NC1CCS(=O)(=O)C1)NP(=S)(Oc1ccccc1)Oc1ccccc1 (centres undefined) | inactive: -3.41%
60 | c1ccc(-c2nn[nH]n2)c(-c2nn[nH]n2)c1 | inactive: 8.37%
61 | Cc1ccc(NP(=O)(Oc2cccc(C)c2)Oc2cccc(C)c2)nc1 | inactive: 2.31%
62 | CC(NC(=O)COC(=O)C(O)(c1ccccc1)c1ccccc1)c1ccccc1 (centres undefined) | inactive: 0.605%
63 | Cc1ccccc1OP(=O)(Nc1ccccn1)Oc1ccccc1C | inactive: 0.416%
64 | O=c1c2cc([N+](=O)[O-])ccc2[nH]c2c([N+](=O)[O-])cc([N+](=O)[O-])cc12 | inactive: 0.252%
65 | CN(C)C(=O)Oc1noc2ccccc12 | inactive: 2.94%
66 | Cc1ccc(OP(=O)(Nc2ccccn2)Oc2ccc(C)cc2)cc1 | inactive: -9.78%
67 | O=C(OC1CN2CCC1CC2)c1ccccc1 (centres undefined) | inactive: 1.27%
68 | O=P(Nc1nc2ccccc2s1)(c1ccccc1)c1ccccc1 | inactive: 9.8%
69 | C[C@H]1OP(=O)(Oc2ccccc2)[C@H](O)[C@H](O)[C@H]1N=[N+]=[N-] (some centres undefined) | inactive: 3.78%
70 | COc1ccc(N)c([N+](=O)[O-])c1[N+](=O)[O-] | inactive: -3.61%
71 | Nc1ccc(CCCCOc2ccccc2)cc1 | inactive: -2.85%
72 | O=P(Nc1ccccn1)(c1ccc(Br)cc1)c1ccc(Br)cc1 | inactive: 5.42%
73 | CN(C)C1(CNC(=O)c2ccc(Cl)c(S(N)(=O)=O)c2)CCCCC1 | inactive: 2.75%
74 | C/C(N)=N\P(=O)(OCc1ccccc1)OCc1ccccc1 | inactive: -0.754%
75 | C(Cc1nn[nH]n1)Cc1nn[nH]n1 | inactive: -0.285%
76 | Nc1ccc([As](=O)(O)c2ccc([N+](=O)[O-])cc2)cc1 | inactive: 3.78%
77 | O=[N+]([O-])c1ncn(CCn2cnc([N+](=O)[O-])n2)n1 | inactive: 7.31%
78 | CC(=O)NC(SC(=S)N(C)C)C(Cl)(Cl)Cl (centres undefined) | inactive: -6.46%
79 | O=[As](O)(c1ccccc1)c1ccc(O)cc1 | inactive: 2.64%
